# Test results from patent US11371022B2, “Blood-brain barrier endothelial cells derived from pluripotent stem cells for blood-brain barrier models” (PRESIDENT AND FELLOWS OF HARVARD COLLEGE, priority 2016, dated 2022).
# Test system: ABCB1 or ABCC1
# Experiment: Rhodamine 123 apparent permeability across BBB chip with efflux pump blockage by metabolic inhibitors
# Type: in vitro ADME, human
# Conditions: FIG. 9A
substance,measurement,setting,value
rhodamine 123,Papp of Rhodamine 123 on blockage of ABCB1 or ABCC1,"hypoxia-stimulated BBB Chip, metabolic inhibitors",significantly increased
same,change of Rhodamine 123 penetration on blockage of ABCB1 or ABCC1,normoxia control BBB chip,did not show any change
